Assay: Particle size distribution of micelles in water by dynamic light scattering (DLS)
Format: physicochemical
Conditions: diluted with water, 25° C.
Experimental: Formulations of PTS and CoQ10 (3:1) as well as PTS alone were diluted with water (8×, 16×, and 32× mg/mL). […] The resulting solutions were filtered through a filter cartridge to remove dust particles, transferred to a glass sample tube and placed into an oil bath for temperature control. The particle size distribution of the formed micelles in the formulations were subsequently measured at 25° C. using a Brookhaven Dynamic Light Scattering (DLS) detector equipped with an Avalanche photodiode detector and an MG vertically polarized 35 mmV Helium-Neon 633 nm laser.

size distribution width compared with CoQ10/PTS formulations: broader
Substance: polyoxyethanyl-tocopherol-sebacate [PTS]

— US20080160077A1, “Soft Gel Formulations” (Zymes, LLC, priority 2006, published 2008)
